The results in this text go back to patent publication US20260022143A1, “Cyclic Peptide Inhibitors of IL-23” (JANSSEN PHARMACEUTICA NV, priority 2022, published 2026).

The experiment addresses T1, IL-23R (Homo sapiens, UniProt Q5VWK5).
T1 construct: host or cells: HEK293
T1 sequence (Q5VWK5 24-629): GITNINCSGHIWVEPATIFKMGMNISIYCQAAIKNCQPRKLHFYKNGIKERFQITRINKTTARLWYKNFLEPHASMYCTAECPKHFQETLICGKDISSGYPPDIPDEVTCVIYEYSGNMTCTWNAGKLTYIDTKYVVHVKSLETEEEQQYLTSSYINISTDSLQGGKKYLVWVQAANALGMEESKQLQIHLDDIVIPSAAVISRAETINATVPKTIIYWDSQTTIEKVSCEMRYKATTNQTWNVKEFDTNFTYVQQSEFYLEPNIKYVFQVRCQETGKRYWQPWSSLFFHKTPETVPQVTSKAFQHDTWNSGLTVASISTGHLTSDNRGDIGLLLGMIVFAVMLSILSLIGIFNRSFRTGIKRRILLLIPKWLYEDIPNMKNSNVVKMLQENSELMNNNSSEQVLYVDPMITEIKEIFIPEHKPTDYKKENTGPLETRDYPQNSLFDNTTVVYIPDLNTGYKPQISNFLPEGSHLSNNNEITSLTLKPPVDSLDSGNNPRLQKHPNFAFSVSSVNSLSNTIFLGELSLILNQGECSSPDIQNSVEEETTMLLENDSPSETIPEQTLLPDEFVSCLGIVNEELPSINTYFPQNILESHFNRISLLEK
As to the kind of experiment: IL23R Reporter Assay. It counts as cell-based. Conditions: IL23R Reporter Assay (micromolar), HEK293 cells containing IL-23R, IL-12RP1 and STAT-inducible firefly luciferase reporter; 10 ng/mL IL-23 (EC90); 5 h at 37° C.

In the case of `CC(=O)NCCCC[C@@H]1NC(=O)[C@H](Cc2c[nH]c3c(C)cccc23)NC(=O)[C@H]([C@@H](C)O)NC(=O)[C@H](CC(N)=O)NC(=O)[C@@H](NC(C)=O)C(C)(C)SSC(C)(C)[C@@H](C(=O)N[C@@H](Cc2ccc(OCCN)cc2)C(=O)N[C@@H](Cc2ccc3ccccc3c2)C(=O)N[C@@](C)(CCCCN)C(=O)N[C@@H](CCCCNC(C)=O)C(=O)N[C@@H](CC(N)=O)C(=O)N[C@@H](Cc2ccc(CN)cc2)C(=O)N(C)[C@H](Cc2ccc(O)cc2)C(N)=O)NC1=O` [compound 10, MeCO-Pen(3)-N-T-7MeW-K(Ac)-Pen(3)-AEF-2Nal-aMeK-K(Ac)-N-Paf-NMeDTyr-CONH2], inhibition was half-maximal at 230 nM (IC50). That is a sub-micromolar value.
